Article PMC12337661, “PIEZO1 mechanical insensitivity in generalized lymphatic dysplasia with the potential for pharmacological rescue” (iScience, 2025)

System: T-REx-293 cells, empty vector (vector control)
Experiment: Intracellular Ca2+ measurement (fura-2), T-REx-293 cells stably transfected with empty vector
Settings: time course 0-125 s, time (s) in the cell to the left, Figure 3e
Procedure: T-REx-293 cell line was transfected with pcDNA4/TO-mPIEZO1 constructs using Lipofectamine 2000 (Invitrogen) as above and treated with 200 μg.mL^−1 zeocin (InvivoGen) to select for stably transfected cells. At least two strongly expressing clonal cell lines were established and tested for each variant. All cell lines were maintained in Dulbecco’s Modified Eagle’s medium (Invitrogen) supplemented with 10% heat-inactivated fetal calf serum (Sigma-Aldrich), penicillin (50 units.mL^−1) and streptomycin (0.5 mg.mL^−1) (Sigma-Aldrich) and grown at 37°C in a humidified 5% CO2 incubator.
For intracellular Ca^2+ assays, cells were plated at 80–90% confluence in 96-well plates 24 h prior to recordings (6–8 × 10^4 cells per well). To measure intracellular Ca^2+, cells were incubated for 1 h at 37°C in standard bath solution (SBS) of composition 135 mM NaCl, 5 mM KCl, 1.2 mM MgCl2, 1.5 mM CaCl2, 8 mM glucose and 10 mM HEPES (pH titrated to 7.4 using NaOH) containing 2 μM fura-2-acetoxymethyl ester (fura-2-AM, Molecular Probes) with 0.01% weight/volume pluronic acid. Cells were washed with SBS and incubated at room temperature for 20 min prior to recordings. Equal volumes of 2x concentrated compounds were injected to test for acute channel activation. Pre-incubation with compounds occurred during the 20 min prior to recordings. To expose cell membranes to hypo-osmolality, an equal volume of hypotonic SBS (containing only 35 mM NaCl) was injected onto the cells. Measurements were made on a fluorescence plate reader (Flexstation III, Molecular Devices) at room temperature (21 ± 2°C). Fura-2 was excited at 340 nm and 380 nm and emitted light collected at 510 nm, with measurements shown as the change in fluorescence (F) ratio (ΔF340/380).
KC41 (Dooku1) was prepared as described.[28] All purchased chemicals and solvents were used without further purification unless otherwise stated. All compounds were at least 95% pure by 1H NMR. 1H Nuclear Magnetic Resonance spectra were recorded at 500 MHz using a Bruker DRX 500 instrument or at 400 MHz using a Bruker DPX 400. 1H spectra are referenced based on the residual proton in the solvent (e.g., the CHCl3, 0.01% in 99.99% CDCl3). Coupling constants (J) are reported to the nearest 0.1 Hz. 13C NMR spectra were recorded at 125 MHz on 500 MHz spectrometers or at 100 MHz on 400 MHz spectrometers. LC-MS was performed on a Bruker Daltronics running a gradient of increasing acetonitrile (5–95%) in H2O both containing 0.1% formic acid at 1 mL.min^−1, on a short path C18 reverse phase column, detecting compounds with both a diode array detector and a Bruker mass spectrum analyser. HRMS was performed on a Bruker Daltonics micrOTOF using positive electrospray ionisation (ES+). Automated column chromatograph was carried out using a Biotage Isolera Four, using either Sfär Silica D or KP-Silica cartridges. HPLC was performed on an Agilent 1290 Infinity Series equipped with a UV detector and Hyperprep C18 reverse phase column. Key to NMR abbreviations: s (singlet), br s (broad singlet) d (doublet), dd (doublet of doublets), ddd (doublet of doublets of doublets), t (triplet), dt (doublet of triples), q (quartet), m (multiplet), ap. t (apparent triplet). For experiments, Yoda1 and its analogues were prepared as 10 mM stock solutions in 100% dimethyl sulfoxide (DMSO) before serial dilution in DMSO and final dilution in aqueous solution. Cells were exposed to 0.1% DMSO for all concentrations of the compounds from 0 to 10 μM.

Clc1cccc(Cl)c1CSc1nnc(-c2cnccn2)s1 [Yoda1]
fluorescence (Yoda1 0.01 µM, time 60 s): 0.02437
fluorescence (Yoda1 0.01 µM, time 110 s): 0.01728
fluorescence (Yoda1 0.03 µM, time 5 s): 0.00394
fluorescence (Yoda1 0.03 µM, time 55 s): 0.04884
fluorescence (Yoda1 0.03 µM, time 110 s): 0.02692
fluorescence (Yoda1 0.1 µM, time 0 s): -0.00125
fluorescence (Yoda1 0.1 µM, time 55 s): 0.03759
fluorescence (Yoda1 0.1 µM, time 110 s): 0.02302
fluorescence (Yoda1 0.3 µM, time 0 s): -0.00175
fluorescence (Yoda1 0.3 µM, time 5 s): 0.01377
fluorescence (Yoda1 0.3 µM, time 10 s): -0.00153
fluorescence (Yoda1 0.3 µM, time 15 s): -0.01273
fluorescence (Yoda1 0.3 µM, time 20 s): -0.00341
fluorescence (Yoda1 0.3 µM, time 25 s): 0.00565
fluorescence (Yoda1 0.3 µM, time 30 s): -0.2499
fluorescence (Yoda1 0.3 µM, time 35 s): -0.1069
fluorescence (Yoda1 0.3 µM, time 40 s): 0.04219
fluorescence (Yoda1 0.3 µM, time 45 s): 0.02992
fluorescence (Yoda1 0.3 µM, time 50 s): 0.04239
fluorescence (Yoda1 0.3 µM, time 55 s): 0.02369
fluorescence (Yoda1 0.3 µM, time 60 s): 0.02877
fluorescence (Yoda1 0.3 µM, time 65 s): 0.01603
fluorescence (Yoda1 0.3 µM, time 70 s): 0.04176
fluorescence (Yoda1 0.3 µM, time 75 s): 0.00642
fluorescence (Yoda1 0.3 µM, time 80 s): 0.03982
fluorescence (Yoda1 0.3 µM, time 85 s): 0.03156
fluorescence (Yoda1 0.3 µM, time 90 s): 0.03001
fluorescence (Yoda1 0.3 µM, time 95 s): 0.02269
fluorescence (Yoda1 0.3 µM, time 100 s): 0.00809
fluorescence (Yoda1 1 µM, time 0 s): -0.00535
fluorescence (Yoda1 1 µM, time 55 s): 0.04091
fluorescence (Yoda1 1 µM, time 110 s): 0.01839
fluorescence (Yoda1 3 µM, time 0 s): 0.01974
fluorescence (Yoda1 3 µM, time 5 s): 0.00863
fluorescence (Yoda1 3 µM, time 10 s): -0.01253
fluorescence (Yoda1 3 µM, time 15 s): -0.00652
fluorescence (Yoda1 3 µM, time 20 s): 0.00489
fluorescence (Yoda1 3 µM, time 25 s): -0.01421
fluorescence (Yoda1 3 µM, time 30 s): -0.2206
fluorescence (Yoda1 3 µM, time 35 s): -0.1161
fluorescence (Yoda1 3 µM, time 40 s): 0.06482
fluorescence (Yoda1 3 µM, time 50 s): 0.06525
fluorescence (Yoda1 3 µM, time 55 s): 0.08549
fluorescence (Yoda1 3 µM, time 105 s): 0.04529
fluorescence (Yoda1 3 µM, time 110 s): 0.05218
fluorescence (Yoda1 3 µM, time 115 s): 0.04746
fluorescence (Yoda1 3 µM, time 120 s): 0.0477
fluorescence (Yoda1 3 µM, time 125 s): 0.03491
fluorescence (Yoda1 5 µM, time 0 s): -0.00759
fluorescence (Yoda1 5 µM, time 10 s): 0.00484
fluorescence (Yoda1 5 µM, time 15 s): -0.01453
fluorescence (Yoda1 5 µM, time 20 s): 0.01196
fluorescence (Yoda1 5 µM, time 25 s): -0.00265
fluorescence (Yoda1 5 µM, time 30 s): -0.1828
fluorescence (Yoda1 5 µM, time 35 s): -0.1045
fluorescence (Yoda1 5 µM, time 40 s): 0.1222
fluorescence (Yoda1 5 µM, time 45 s): 0.09547
fluorescence (Yoda1 5 µM, time 50 s): 0.1062
fluorescence (Yoda1 5 µM, time 55 s): 0.1244
fluorescence (Yoda1 5 µM, time 60 s): 0.1058
fluorescence (Yoda1 5 µM, time 65 s): 0.1061
fluorescence (Yoda1 5 µM, time 70 s): 0.08919
fluorescence (Yoda1 5 µM, time 80 s): 0.09353
fluorescence (Yoda1 5 µM, time 85 s): 0.08273
fluorescence (Yoda1 5 µM, time 90 s): 0.09999
fluorescence (Yoda1 5 µM, time 95 s): 0.09519
fluorescence (Yoda1 5 µM, time 100 s): 0.08723
fluorescence (Yoda1 5 µM, time 105 s): 0.09223
fluorescence (Yoda1 5 µM, time 110 s): 0.08686
fluorescence (Yoda1 5 µM, time 115 s): 0.08757
fluorescence (Yoda1 5 µM, time 120 s): 0.08911
fluorescence (Yoda1 5 µM, time 125 s): 0.1049
fluorescence (Yoda1 10 µM, time 50 s): 0.1449
fluorescence (Yoda1 10 µM, time 100 s): 0.2049
